According to patent publication US20230365559A1, “NOVEL AMINOPYRIDINES AND THEIR USE IN TREATING CANCER” (priority 2020, published 2023):

Experiments:
UT-SCC-54C cells [1] = assay: Radiosensitisation of UT-SCC-54C HNSCC cells, clonogenic survival, oxic and anoxic (Table 18); type: cell-based, human; conditions: no radiation
UT-SCC-54C cells [2] = assay: Radiosensitisation of UT-SCC-54C HNSCC cells, regrowth (sulforhodamine B) assay, oxic (Table 16); type: cell-based; conditions: Homo sapiens

In the case of COc1ccc(-n2c(=O)n(C)c3cnc(Nc4ccc(OC)cc4C)cc32)cc1 [Compound 195, 6-((4-Methoxy-2-methylphenyl)amino)-1-(4-methoxyphenyl)-3-methyl-1,3-dihydro-2H-imidazo[4,5-c]pyridin-2-one], the “Plating efficiency drug/no drug” value (UT-SCC-54C cells [1]; 20% O2, compound conc 0.33 μM) is reported as 1.08, the “Plating efficiency drug/no drug” value (UT-SCC-54C cells [1]; 20% O2, compound conc 1 μM) is reported as 1.09 and the “Plating efficiency drug/no drug” value (UT-SCC-54C cells [1]; 20% O2, compound conc 3 μM) is reported as 1.14. For the same molecule, the IC50 (UT-SCC-54C cells [2]) was greater than 10 µM.
